From patent US20230160021A1, “METHOD FOR THE DETECTION OF A SEXUALLY TRANSMITTED INFECTIOUS PATHOGEN” (SELFDIAGNOSTICS DEUTSCHLAND GMBH, priority 2016, published 2023)

Tests used:
E. coli = experiment: Loop-mediated isothermal amplification directly from E. coli cell lysates after pretreatment of urine spiked E. coli; assay type: cell-based, Escherichia coli; conditions: 50 μM peptide, 5 min at RT, LAMP (FIG. 6)
Experimental: Loop-mediated isothermal amplification directly from E. coli cell lysates. Isothermal amplification after pretreatment of urine spiked E. coli with different lysate preparation techniques. Lysozyme was used at 1 mg/ml concentration, polyethylene glycol p-(1,1,3,3-tetramethylbutyl)-phenyl ether at 1% and peptides at 50 μM concentration for the biological sample treatment. All sample pretreatments were performed for 5 min at RT° C. (except for heat treatment that was incubated at 95° C.).
A biological sample containing E. coli bacteria (urine sample in FIG. 6) is treated with 50 μM antimicrobial peptide belonging to but not limited to cecropin group (Cecropin P1 or SB-37 in FIG. 6) for 5 min at RT° C. 5 μl of the urine sample is added directly to the loop-mediated amplification reaction, so that final reaction volume is 50 μl and final components concentration as follows: 0.2 μM F3 primer, 0.2 μM B3 primer, 1.6 μM BIP primer, 1.6 μM FIP primer, 0.8 μM LF primer, 0.8 μM LB primer, 8 mM MgSO4, 1.4 mM dNTP, 0.8M betain, 20 mM Tris-HCl pH 8.8, 10 mM KCl, 10 mM (NH4)2SO4, 0.1% (v/v) Tween 20 and 16 units of Bsm polymerase.
In the example of E. coli detection from FIG. 6, pretreatment of the urine samples with antimicrobial peptides gave up to 6 times increased amount of target DNA. […]

LAMP reaction = experiment: LAMP amplification activity in the presence of lytic agents / lytic peptides; assay type: biochemical; conditions: 5 μM antimicrobial peptide in LAMP reaction
Experimental: Loop-mediated isothermal amplification activity in the presence of different lytic agents. Percentage of amplification activity in the presence of 0.1% polyethylene glycol p-(1,1,3,3-tetramethylbutyl)-phenyl ether, 0.1 mg/ml lysozyme (with or without 0.1% polyethylene glycol p-(1,1,3,3-tetramethylbutyl)-phenyl ether or 1 mM EDTA) or alkaline lysis components.
Loop-mediated isothermal amplification activity in the presence of different lytic peptides. Percentage of amplification activity in the presence of 5 μM antimicrobial peptides.
To estimate potential inhibitory effect of different lysate preparation methods (alkaline, enzymatic, detergent lysis) and of antimicrobial peptides on downstream application efficiency, we have performed LAMP isothermal amplification in the presence of different lytic agents (FIG. 4-5).

## SB-37
E. coli
  increase of the target DNA available for the isothermal amplification: 2 times
LAMP reaction
  inhibiting effect on the LAMP amplification efficiency: only mild inhibition
